Laboratory results from patent publication US20230256111A1, “C[…] ADC OR AN AOC COMPRISING A VHH, AND A SAPONIN OR A LIGAND-SAPONIN CONJUGATE” (SAPREME TECHNOLOGIES B.V., priority 2020, published 2023).

System: human A431 tumor cells (xenograft)
Assay: A431 xenograft tumor model in nude mice, tumor volume
Assay type: in vivo, mouse
Conditions: Example 10; for outcome (death/euthanasia or survival): A431 xenograft mice
Experimental: Female Balb/c nude mice were injected subcutaneously with a suspension of human A431 tumor cells. Under the skin of the mice, a human epidermal carcinoma developed in the xenograft animal tumor model. After injection of the tumor cells, the xenograft tumor was allowed to develop to a size of approximately 170-180 mm^3. The A431 tumor cells have the following characteristics: high EGFR expressors, medium 0071 expressors, low HER2 expressors.
In Table 6A, the results of the treatment of control mice and tumor-bearing mice are presented. Tumor-bearing mice were treated with the indicated antibodies directed to either human Her2/neu, human EGFR, or human CD71, which are cell-surface receptors on the xenograft tumor. Cetuximab was covalently conjugated with saponin SO1861. […] The dose of the ADCs was sub-optimal in the tumor model. That is to say, from previous experiments, it was established at which sub-optimal dose of the ADCs no tumor-regression or arrest of tumor growth would be observable.
The 2 target 2-components system (2T2C) is the combination treatment of mAb1-SO1861 and mAb2-protein toxin, (FIG. 1B-D).

Substance | outcome (death/euthanasia or survival) | tumor size (volume) (female Balb/c nude mice, start size approximately 170-180 mm^3, sub-optimal ADC dose)
Cetuximab-SO1861: cetuximab conjugated to saponin SO1861 via cleavable hydrazone (EMCH) linker | death/euthanasia | 2000 mm^3
Cetuximab: monoclonal antibody recognizing and binding human EGFR | (death/euthanasia) | 
